Test results reported in patent US20080052790A1.

Tested on: Arabidopsis and tobacco plants
Experiment: Homologous recombination frequency with GUS/LUC recombination reporter constructs
Settings: in vivo

In the case of ammonium nitrate, the “effect on homologous recombination frequency” value was “largest increase in homologous recombination frequency”.

Only a part of the results on these compounds is given; other tests are left out.
